The values that follow come from patent publication EP4717267A1, “SYNERGISTIC COMBINATION FOR TREATING CANCER” (FUNDACION UNIVERSITARIA SAN ANTONIO (UCAM), priority 2023, dated 2024).

Test [1] relates to A549 cells. In words: MTT colorimetric cytotoxicity assay on A549 cells, single drugs and two-drug combinations, with combination index (CompuSyn). The class given is cell-based, Human. To be noted: 0.58 µM Doxorubicin alone.
The subject of test [2] is MCF-7 cells. Put plainly: MTT colorimetric cytotoxicity assay on MCF-7 cells, single drugs and two-drug combinations, with combination index (CompuSyn). The class given is cell-based, Human. As for the experimental part:
IC50 values were calculated using GraphPad Prism software.
This equation defines "Synergism" (CI < 1), "Additive effect" (CI = 1) and "Antagonism" (CI > 1).

For `COc1cccc2c1C(=O)c1c(O)c3c(c(O)c1C2=O)C[C@@](O)(C(=O)CO)C[C@@H]3O[C@H]1C[C@H](N)[C@H](O)[C@H](C)O1` [Doxorubicin, (7S,9S)-7-[(2R,4S,5S,6S)-4-amino-5-hydroxy-6 methyloxan-2-yl]oxy-6,9,11-trihydroxy-9-(2-hydroxyacetyl)-4-methoxy-8,10-dihydro-7H tetracene-5,12-dione], the cancer cell survival in test [1] worked out at 27.0%. In addition, the “reduction in cancer cell survival” value in test [2] (0.225 µM Doxorubicin alone, MCF-7) came to 23.1%. Besides, the MCF-7 cell survival in test [2] (Doxorubicin alone at the highest dose tested (5.0 µM)) was 31.9%.
